Source: patent US11579088B2, “Device and method for imaging shortwave infrared fluorescence” (Massachusetts Institute of Technology, priority 2016, dated 2023)

System: breast cancer tumor in the liver with over-expression of the HER2 receptor
Assay: Targeted SWIR imaging of a liver tumor with near infrared dye-antibody conjugate
Format: in vivo
Conditions: mouse with HER2 over-expressing breast cancer tumor in liver; conjugate injected intraperitoneally 15 mg/kg; imaged three days after injection
Procedure: The dye-antibody conjugate was injected intraperitoneally into a mouse at a dose of 15 mg/kg body weight. Three days after the initial injection of the dye-antibody conjugate, the mouse was imaged using SWIR fluorescence detection.
As a control experiment, IRDye 800CW was conjugated to IgG, a non-specific antibody. The conjugate was injected into a second mouse model implanted with the same tumor in the same location.
FIG. 4 presents a white light image of both the control mouse on the left and the trastuzumab-labeled mouse on the right with room-lights on for positioning reference. FIG. 5 presents an SWIR image of both mice in the same positions.

**Q.** How did the “SWIR fluorescence signal indicating the position of the tumor” value turn out when “IRDye800-trastuzumab: Trastuzumab, a HER2-receptor targeting antibody, conjugated to IRDye 800CW using a commercially available labeling kit” was run?
**A.** Its value is “strong fluorescence signal”.
